From PubChem BioAssay AID1825 (The Scripps Research Institute Molecular Screening Center, 2009) come the findings set out here.

Only a part is listed here, and it is no random draw. Active and inactive are the calls of the source. Cut-off read from the data, not from the text of the source: active = inhibition above about 22%; inactive = the rest.

The assay can be described thus: cytotoxicity in IEC-6 intestinal epithelial cells, primary screen, cytotoxicity control for KLF5 inhibitor project, cell-based, luminescence (AID 1825).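 Note: 0% = plate median of test compound wells and 100% = cytotoxic reference compound wells.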 The conditions noted are these: IEC-6 cytotoxicity, luminescence viability; at 5 µM; stronger effect = higher value.
In general, inhibition refers to the relative decrease from the control value, in per cent. With `COc1cc(OC)c(C(=O)NCC2(N(C)C)CCCCC2)cc1OC`, the inhibition is inactive: -1.9%.
For the compound `CC(C)c1ccc(NC2CCN(C(=O)OC(C)(C)C)CC2)cc1`, the inhibition is inactive: 4.5%.
With `CN(C)c1cccc(C(=O)NCC2(N3CCCCC3)CCCCC2)c1` the figure was inactive: 3.5%; with `COc1ccc(CN(CCCl)CCCl)cc1Cl`, inactive: -1.4%.
To `CCCOc1ccc(C(=O)NCC2(N(C)C)CCCCC2)cc1OC` belongs inactive: 4.5%.
With `CN1CCC(Nc2cccc(F)c2)CC1` the figure was inactive: 8.9%; with `N#CC1(Nc2ccccc2)CCN(CCc2ccccc2)CC1`, inactive: -0.8%; with `CCN1CCC(Nc2ccc(Cl)cc2)CC1`, inactive: -10.5%.
In the case of `O=C(NCC1(N2CCCCC2)CCCCC1)c1cccc([N+](=O)[O-])c1`, the inhibition was inactive: -9.4%.
With `O=C(NCC1(N2CCCCC2)CCCCC1)c1ccc(OC(F)F)cc1` the figure was inactive: -1.6%; with `O=C(NCC1(N2CCOCC2)CCCCC1)c1cc(=O)[nH]c2ccccc12`, inactive: 3.2%.
As for `COc1cc(C(=O)NCC2(N3CCCCC3)CCCCC2)ccc1OC(F)F`, the inhibition was inactive: -0.8%.
For `COc1ccc(NC2CCN(C(=O)OC(C)(C)C)CC2)cc1`, the inhibition is inactive: -6.8%.
To `CN1CCN(CCOC(=O)C(O)(c2ccccc2)c2ccccc2)CC1` belongs inactive: -2.7%; to `O=C(NCC1(N2CCCCC2)CCCCC1)c1cccc(C(F)(F)F)c1`, inactive: -0.6%.
To `CCOC(=O)N1CCC(Nc2ccc(F)cc2)CC1` belongs inactive: 5.1%.
For `COc1ccc(NC2CCN(CCc3ccccc3)CC2)c(OC)c1`, the inhibition is inactive: -4.9%.
To `O=C(NCC1(N2CCCCC2)CCCCC1)c1ccc(F)cc1` belongs inactive: -3.4%; to `CCOc1ccc(C)cc1CN(CCCl)CCCl`, inactive: -4.4%; to `Cc1ccc(OCC(C)C)c(CN(CCCl)CCCl)c1`, inactive: 4%.
To `CCOC(=O)N1CCC(Nc2cccc(C)c2)CC1` belongs inactive: 9.1%; to `COc1cc(C(=O)NCC2(N(C)C)CCCCC2)ccc1OC(F)F`, inactive: 1.3%; to `CSc1ccccc1C(=O)NCC1(N2CCCCC2)CCCCC1`, inactive: 0.4%.
To `COc1ccc(C(=O)NCC2(N3CCCCC3)CCCCC2)c(OC)c1OC` belongs inactive: -4.9%; to `CC(C)(C)OC(=O)N1CCC(N(C(=O)c2ccccc2)c2ccc(F)cc2)CC1`, inactive: -0.6%.
For `COc1ccc(C(=O)NCC2(N3CCCCC3)CCCCC2)cc1`, the inhibition was inactive: 2.3%.
With `O=C(NCC1(N2CCCCC2)CCCCC1)c1ccc(=O)[nH]c1` the figure was inactive: -2.4%.
In the case of `N#CC1(Nc2ccccc2)CCN(Cc2ccccc2)CC1`, the inhibition was inactive: -4%.
`O=C(OC1CN2CCC1CC2)C1c2ccccc2Oc2ccccc21` (centres undefined): the inhibition was inactive: 1%.
To `CCOC(=O)N1CCC(Nc2ccc(OC)cc2)CC1` belongs inactive: 0.6%.
To `Cc1cc(C)cc(N(C(=O)c2ccccc2)C2CCN(C(=O)OC(C)(C)C)CC2)c1` belongs inactive: -1.7%; to `O=C(NCC1(N2CCOCC2)CCCCC1)c1cc2ccccc2o1`, inactive: -2.6%; to `O=C(O)C1(Nc2ccccc2)CCN(Cc2ccccc2)CC1`, inactive: -6%.
With `CC(C)(C)OC(=O)N1CCC(Nc2ccccc2)CC1` the figure was inactive: 1.4%.
Consider `CCCOc1ccc(C(=O)NCC2(N(C)C)CCCCC2)cc1`, for which the inhibition is inactive: 2.2%.
To `CN1CCC(Nc2ccc(F)c(Cl)c2)CC1` belongs inactive: 1.2%; to `CCOc1ncccc1C(=O)NCC1(N2CCOCC2)CCCCC1`, inactive: 5.2%; to `CN1CCC(Nc2ccc(Cl)cc2)CC1`, inactive: -0.7%.
As to `CCCOc1ccc(C)cc1CN(CCCl)CCCl`, the inhibition is inactive: -2.2%.
Consider `COc1cccc(C(=O)N(c2cc(C)cc(C)c2)C2CCN(C(=O)OC(C)(C)C)CC2)c1`, for which the inhibition is inactive: 0.4%.
With `COc1cc(OC)cc(C(=O)NCC2(N3CCOCC3)CCCCC2)c1` the figure was inactive: 4.4%.
With `CCC(CO)(C(=O)OC1CN2CCC1CC2)c1ccccc1` (centres undefined) the figure was inactive: -1.5%; with `COc1cc(OC)cc(C(=O)NCC2(N3CCCCC3)CCCCC2)c1`, inactive: 9.3%; with `CN(C)c1ccc(C(=O)NCC2(N3CCCCC3)CCCCC2)cc1`, inactive: -0.8%.
To `CCN1CCC(Nc2cccc(F)c2)CC1` belongs inactive: 2.7%; to `N#Cc1ccc(C(=O)NCC2(N3CCCCC3)CCCCC2)cc1`, inactive: 3.6%; to `CC(C)(C)OC(=O)N1CCC(N(C(=O)c2ccccc2)c2ccc(Cl)cc2)CC1`, inactive: -5.3%.
As to `CN(C)C1(CNC(=O)c2cccc(C#N)c2)CCCCC1`, the inhibition was inactive: 2.4%.
Turning to `CCCN1CCC(Nc2cc(OC)cc(OC)c2)CC1`, the inhibition is inactive: 1.4%.
Take `c1ccc(CN2CCC(Nc3ccccc3)CC2)cc1`: the inhibition was inactive: -0.6%.
With `COc1ccc(C(=O)NCC2(N3CCOCC3)CCCCC2)cc1OC` the figure was inactive: 5.2%; with `O=C(OC1CN2CCC1CC2)C1c2ccccc2C=Cc2ccccc21` (centres undefined), inactive: -1.9%.
With `CCOC(=O)N1CCC(Nc2ccc(C)cc2)CC1` the figure was inactive: -10.3%; with `N/C(=N\O)c1c(N)no[n+]1[O-]`, inactive: 2.9%.
